{
  "sequences": {"note": "Protein sequences, listed by entry. Tags and fused reporters are not part of them.", "UniProt P07550, whole entry": "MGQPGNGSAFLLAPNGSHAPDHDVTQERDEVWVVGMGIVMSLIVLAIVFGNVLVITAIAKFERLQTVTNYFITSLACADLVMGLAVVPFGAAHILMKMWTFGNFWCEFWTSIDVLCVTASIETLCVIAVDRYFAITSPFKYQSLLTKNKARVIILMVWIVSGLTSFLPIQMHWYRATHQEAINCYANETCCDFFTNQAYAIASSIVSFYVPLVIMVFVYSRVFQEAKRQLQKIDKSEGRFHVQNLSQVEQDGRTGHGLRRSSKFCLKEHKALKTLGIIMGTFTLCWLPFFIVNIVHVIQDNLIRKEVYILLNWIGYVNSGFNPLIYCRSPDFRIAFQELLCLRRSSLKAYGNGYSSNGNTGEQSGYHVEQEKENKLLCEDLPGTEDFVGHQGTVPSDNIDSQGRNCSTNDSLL"},
  "source": "PubChem BioAssay AID504454",
  "about": "(NMMLSC, 2011)",
  "note": "The list shows a part of the results, in another mix than the full data. The source made the active and inactive calls.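 How the source made its calls: active means response above a set limit, near 3 SD of response in nonfluorescent compounds (cut at about 42% in these data); inactive means the rest.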",
  "data": [
    {"target": "Beta-2 adrenergic receptor (Homo sapiens) (UniProt P07550)", "test": "agonist-induced loss of surface beta2AR – cell-based, FAP fluorogen, flow cytometry, primary screen (AID 504454)", "details": "Am2.2-beta2AR cells, FAP receptor internalization, stronger effect = higher value, concentration not given here", "values": [
      {"smiles": "Cc1ccccc1NC1(C#N)CCN(Cc2ccccc2)CC1", "response": "inactive: -11.2%"},
      {"smiles": "CCN1CCC(Nc2cccc(F)c2)CC1", "response": "inactive: 5.06%"},
      {"smiles": "O=C(NCC1(N2CCCCC2)CCCCC1)c1ccco1", "response": "inactive: -5.87%"},
      {"smiles": "CN(C)c1ccc(C(=O)NCC2(N3CCCCC3)CCCCC2)cc1", "response": "inactive: 0.68%"},
      {"smiles": "Cn1c(=O)[nH]cc(N(CCCl)CCCl)c1=O", "response": "inactive: -5.71%"},
      {"smiles": "COc1cc(OC)cc(C(=O)NCC2(N3CCCCC3)CCCCC2)c1", "response": "inactive: 4.6%"},
      {"smiles": "CC(=O)N(c1ccccc1)C1CCNCC1", "response": "inactive: -3.71%"},
      {"smiles": "Cc1ccc(NC2(C#N)CCN(Cc3ccccc3)CC2)cc1", "response": "inactive: -0.69%"},
      {"smiles": "Cc1ccc(C(=O)NCC2(N3CCCCC3)CCCCC2)o1", "response": "inactive: 3.4%"},
      {"smiles": "Fc1ccccc1NC1CCN(Cc2ccccc2)CC1", "response": "inactive: -5.89%"},
      {"smiles": "CCC(CO)(C(=O)OC1CN2CCC1CC2)c1ccccc1", "note": "(centres undefined)", "response": "inactive: 3.16%"},
      {"smiles": "COc1cccc(C(=O)N(c2cc(C)cc(C)c2)C2CCN(C(=O)OC(C)(C)C)CC2)c1", "response": "inactive: -22.9%"},
      {"smiles": "COc1cc(OC)cc(C(=O)NCC2(N3CCOCC3)CCCCC2)c1", "response": "inactive: -1.16%"},
      {"smiles": "CN1CCC(Nc2ccc(Cl)cc2)CC1", "response": "inactive: -3.68%"},
      {"smiles": "CCOc1ncccc1C(=O)NCC1(N2CCOCC2)CCCCC1", "response": "inactive: -5.24%"},
      {"smiles": "CN1CCC(Nc2ccc(F)c(Cl)c2)CC1", "response": "inactive: 4.82%"},
      {"smiles": "CCCOc1ccc(C(=O)NCC2(N(C)C)CCCCC2)cc1", "response": "inactive: -15%"},
      {"smiles": "CC(C)(C)OC(=O)N1CCC(Nc2ccccc2)CC1", "response": "inactive: 2.65%"},
      {"smiles": "O=C(O)C1(Nc2ccccc2)CCN(Cc2ccccc2)CC1", "response": "inactive: -7.66%"},
      {"smiles": "N/C(=N\\O)c1c(N)no[n+]1[O-]", "response": "inactive: -6.2%"},
      {"smiles": "CCOC(=O)N1CCC(Nc2ccc(C)cc2)CC1", "response": "inactive: -1.01%"},
      {"smiles": "O=C(OC1CN2CCC1CC2)C1c2ccccc2C=Cc2ccccc21", "note": "(centres undefined)", "response": "inactive: -3%"},
      {"smiles": "O=C(NCC1(N2CCOCC2)CCCCC1)c1cc(Br)ccc1Cl", "response": "inactive: 9.15%"},
      {"smiles": "COc1cc(C(=O)NCC2(N3CCOCC3)CCCCC2)cc(OC)c1C", "response": "inactive: -0.34%"},
      {"smiles": "COc1ccc(C(=O)NCC2(N3CCOCC3)CCCCC2)cc1OC", "response": "inactive: -3.96%"},
      {"smiles": "c1ccc(CN2CCC(Nc3ccccc3)CC2)cc1", "response": "inactive: 6.44%"},
      {"smiles": "CCCN1CCC(Nc2cc(OC)cc(OC)c2)CC1", "response": "inactive: 4.81%"},
      {"smiles": "Cc1cc(N(CCCl)CCCl)ccc1C=O", "response": "inactive: -31.8%"},
      {"smiles": "CN(C)C1(CNC(=O)c2cccc(C#N)c2)CCCCC1", "response": "inactive: -5.98%"},
      {"smiles": "CC(C)(C)OC(=O)N1CCC(N(C(=O)c2ccccc2)c2ccc(Cl)cc2)CC1", "response": "inactive: -1.22%"},
      {"smiles": "N#Cc1ccc(C(=O)NCC2(N3CCCCC3)CCCCC2)cc1", "response": "inactive: 1.09%"},
      {"smiles": "O=C(NCC1(N2CCCCC2)CCCCC1)c1cccc(C(F)(F)F)c1", "response": "inactive: 7.27%"},
      {"smiles": "COc1ccc(NC2CCN(C(=O)OC(C)(C)C)CC2)cc1", "response": "inactive: -3.64%"},
      {"smiles": "CC(C)c1ccc(C(=O)NCC2(N3CCOCC3)CCCCC2)cc1", "response": "inactive: -4.19%"},
      {"smiles": "CN1CCN(CCOC(=O)C(O)(c2ccccc2)c2ccccc2)CC1", "response": "inactive: 2.09%"},
      {"smiles": "O=C(NCC1(N2CCOCC2)CCCCC1)c1cc(=O)[nH]c2ccccc12", "response": "inactive: -0.57%"},
      {"smiles": "COc1cc(C(=O)NCC2(N3CCCCC3)CCCCC2)ccc1OC(F)F", "response": "inactive: -1.67%"},
      {"smiles": "O=C(NCC1(N2CCCCC2)CCCCC1)c1ccc(OC(F)F)cc1", "response": "inactive: 5.16%"},
      {"smiles": "O=C(NCC1(N2CCCCC2)CCCCC1)c1cccc([N+](=O)[O-])c1", "response": "inactive: -10.8%"},
      {"smiles": "CSc1ccc(C(=O)NCC2(N3CCOCC3)CCCCC2)cc1", "response": "inactive: -3.48%"},
      {"smiles": "CCN1CCC(Nc2ccc(Cl)cc2)CC1", "response": "inactive: 7.15%"},
      {"smiles": "N#CC1(Nc2ccccc2)CCN(CCc2ccccc2)CC1", "response": "inactive: 1.25%"},
      {"smiles": "CN1CCC(Nc2cccc(F)c2)CC1", "response": "inactive: -3.96%"},
      {"smiles": "O=C(NCC1(N2CCCCC2)CCCCC1)c1cncc(Br)c1", "response": "inactive: 7.37%"},
      {"smiles": "CCCOc1ccc(C(=O)NCC2(N(C)C)CCCCC2)cc1OC", "response": "inactive: -9.47%"},
      {"smiles": "COc1ccc(CN(CCCl)CCCl)cc1Cl", "response": "inactive: 11.6%"},
      {"smiles": "CN(C)c1cccc(C(=O)NCC2(N3CCCCC3)CCCCC2)c1", "response": "inactive: 1.72%"},
      {"smiles": "CC(C)c1ccc(NC2CCN(C(=O)OC(C)(C)C)CC2)cc1", "response": "inactive: -0.5%"},
      {"smiles": "COc1cc(OC)c(C(=O)NCC2(N(C)C)CCCCC2)cc1OC", "response": "inactive: -3.49%"},
      {"smiles": "O=C(NCC1(N2CCOCC2)CCCCC1)c1cc(F)c(F)cc1Cl", "response": "inactive: -7.4%"},
      {"smiles": "O=C(NCC1(N2CCOCC2)CCCCC1)c1cc2ccccc2o1", "response": "inactive: -5.15%"},
      {"smiles": "O=C(NCC1(N2CCCCC2)CCCCC1)c1ccc(Cl)nc1", "response": "inactive: 0.04%"},
      {"smiles": "Cc1cc(C)cc(N(C(=O)c2ccccc2)C2CCN(C(=O)OC(C)(C)C)CC2)c1", "response": "inactive: -7.97%"},
      {"smiles": "CCOC(=O)N1CCC(Nc2ccc(OC)cc2)CC1", "response": "inactive: 3.53%"},
      {"smiles": "O=C(NCC1(N2CCCCC2)CCCCC1)c1ccc(Cl)s1", "response": "inactive: 5.14%"},
      {"smiles": "N#CC1(Nc2ccccc2)CCN(Cc2ccccc2)CC1", "response": "inactive: -4.98%"},
      {"smiles": "O=C(OC1CN2CCC1CC2)C1c2ccccc2Oc2ccccc21", "note": "(centres undefined)", "response": "inactive: -0.08%"},
      {"smiles": "COc1ccc(Cl)cc1C(=O)NCC1(N2CCOCC2)CCCCC1", "response": "inactive: 0.03%"},
      {"smiles": "O=C(NCC1(N2CCCCC2)CCCCC1)c1ccc(=O)[nH]c1", "response": "inactive: 0.77%"},
      {"smiles": "O=C(NCC1(N2CCCCC2)CCCCC1)c1cccs1", "response": "inactive: -20.2%"},
      {"smiles": "COc1ccc(C(=O)NCC2(N3CCCCC3)CCCCC2)cc1", "response": "inactive: 10.6%"},
      {"smiles": "COc1ccc(C(=O)NCC2(N3CCCCC3)CCCCC2)c(OC)c1OC", "response": "inactive: 1.49%"},
      {"smiles": "CC(C)(C)OC(=O)N1CCC(N(C(=O)c2ccccc2)c2ccc(F)cc2)CC1", "response": "inactive: 0.16%"},
      {"smiles": "CSc1ccccc1C(=O)NCC1(N2CCCCC2)CCCCC1", "response": "inactive: 13.9%"},
      {"smiles": "Cc1cccc(NC2(C#N)CCN(Cc3ccccc3)CC2)c1", "response": "inactive: -3.96%"},
      {"smiles": "CCOC(=O)N1CCC(Nc2cccc(C)c2)CC1", "response": "inactive: 3.16%"},
      {"smiles": "COc1cc(C(=O)NCC2(N(C)C)CCCCC2)ccc1OC(F)F", "response": "inactive: -10.4%"},
      {"smiles": "CCOc1ccc(C)cc1CN(CCCl)CCCl", "response": "inactive: 4.74%"},
      {"smiles": "O=C1CCN(Cc2ccccc2)CC1", "response": "inactive: -0.49%"},
      {"smiles": "CCCCOc1ccc(C(=O)NCC2(N3CCOCC3)CCCCC2)cc1", "response": "inactive: -2%"},
      {"smiles": "O=P1(N(CCCl)CCCl)SCCCS1", "response": "inactive: 7.71%"},
      {"smiles": "O=C(NCC1(N2CCCCC2)CCCCC1)c1ccc(F)cc1", "response": "inactive: -3.93%"},
      {"smiles": "CCOC(=O)N1CCC(Nc2ccc(F)cc2)CC1", "response": "inactive: 4.4%"},
      {"smiles": "COc1ccc(NC2CCN(CCc3ccccc3)CC2)c(OC)c1", "response": "inactive: -1.08%"}
    ]}
  ]
}
